These results are taken from patent publication US20250361280A1 (Protagonist Therapeutics, Inc., priority 2022, published 2025).

Assay [1] has as its target T1, ferroportin (Homo sapiens, UniProt Q9NP59).
T1 sequence (Q9NP59 1-571): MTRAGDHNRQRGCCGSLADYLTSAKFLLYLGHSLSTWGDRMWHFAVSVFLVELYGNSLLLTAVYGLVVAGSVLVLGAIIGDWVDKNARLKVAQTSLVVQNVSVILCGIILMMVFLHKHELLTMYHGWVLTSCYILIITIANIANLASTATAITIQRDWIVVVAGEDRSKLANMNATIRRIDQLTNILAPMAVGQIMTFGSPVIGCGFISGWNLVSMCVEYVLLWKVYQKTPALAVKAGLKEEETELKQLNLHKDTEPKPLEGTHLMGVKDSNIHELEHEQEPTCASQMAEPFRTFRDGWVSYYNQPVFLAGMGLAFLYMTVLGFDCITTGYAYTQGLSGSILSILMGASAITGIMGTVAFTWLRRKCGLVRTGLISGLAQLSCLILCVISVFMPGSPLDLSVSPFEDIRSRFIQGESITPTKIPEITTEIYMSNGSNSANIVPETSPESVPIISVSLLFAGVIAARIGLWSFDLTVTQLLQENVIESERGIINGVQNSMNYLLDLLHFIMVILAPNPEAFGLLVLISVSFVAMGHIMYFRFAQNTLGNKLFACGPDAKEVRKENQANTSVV
The assay can be described thus: FPN internalization assay (FPN activity assay), loss of ferroportin-GFP fluorescence. In kind it is cell-based. The following applies: HEK293 cells stably expressing ferroportin-GFP, compound at least 18 hours, read-out: IC50: FPN.

Assay [2] concerns the target T1, ferroportin. The assay can be described thus: T47D internalization assay in presence of mouse serum albumin. Also noted: a human breast carcinoma adherent cell line which endogenously expresses ferroportin; host or cells: T47D. The note with it: T47D cells, 0.5% mouse serum albumin, 1 hr incubation, read-out: IC50: T47D MSA. The assay is classed as cell-based. Put shortly: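 T47D cells exposed 1 h to 10-point peptide dilutions (top ~5 μM) preincubated 30 min with 0.5% mouse serum albumin. Then 200 nM AF647-labelled ferroportin-binding detection peptide for 2 h. Flow cytometry MFI of live singlets, IC50 by 4-parameter fit.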

For orientation: IC50 means the concentration needed to halve the response being measured. With `CCCCCCCCCCCCCCCC(=O)NCCOCCOCCOCCOCCC(=O)NCCCC[C@H](NC(=O)[C@@H]1CCCN1C(=O)[C@@H](NC(=O)[C@H](Cc1c[nH]cn1)NC(=O)[C@@H](NC(=O)[C@H](CCC(=O)O)NC(=O)CC(C)C)[C@@H](C)O)C(c1ccccc1)c1ccccc1)C(=O)NCCCCCc1ccccc1` [compound 117], the IC50 lay in the range of 1 to 30 nM on ferroportin [1] (Table 1D) and 0.1 to 10 nM on ferroportin [2] (Table 1D).
`CCCCCCCCCCCCCCCC(=O)NCC[N+](C)(C)CC(=O)NCCOCCOCC(=O)NCCOCCOCC(=O)NCCCC[C@H](NC(=O)[C@@H]1CCCN1C(=O)[C@@H](NC(=O)[C@H](Cc1c[nH]cn1)NC(=O)[C@@H](NC(=O)[C@H](CCC(=O)O)NC(=O)CC(C)C)[C@@H](C)O)C(c1ccccc1)c1ccccc1)C(=O)NCCCc1ccc(C(C)(C)C)cc1` [compound 103]: the results for the IC50 on ferroportin [1] (Table 1D) and on ferroportin [2] (Table 1D) were over 500 nM and 0.1 to 10 nM, respectively.
On to `CCCCCCCCCCCCCCCC(=O)NCC[N+](C)(C)CC(=O)NCC[N+](C)(C)CC(=O)NCCCC[C@H](NC(=O)[C@@H]1CCCN1C(=O)[C@@H](NC(=O)[C@H](Cc1c[nH]cn1)NC(=O)[C@@H](NC(=O)[C@H](CCC(=O)OC)NC(=O)CC(C)C)[C@@H](C)O)C(c1ccccc1)c1ccccc1)C(=O)NCCCCCc1ccccc1` [compound 70], for which the 50% inhibitory concentration (IC50) lay in the range of 1 to 30 nM on ferroportin [1] (Table 1D) and 0.1 to 10 nM at ferroportin [2] (Table 1D).
In the case of `CCCCCCCCCCCCCCCC(=O)NCC[N+](C)(C)CC(=O)NCCOCCOCC(=O)NCCOCCOCC(=O)NCCCC[C@H](NC(=O)[C@@H]1CSSC[C@H](NC(=O)[C@H](CCC(=O)O)NC(=O)CC(C)C)C(=O)N[C@@H](Cc2cnc[nH]2)C(=O)N[C@@H](C(c2ccccc2)c2ccccc2)C(=O)N1)C(=O)NCCCCc1ccccc1` [compound 216], the results for the concentration for half-maximal inhibition (IC50) on ferroportin [1] (Table 1D) and on ferroportin [2] (Table 1D) were 1 to 30 nM and 10 to 100 nM, respectively.
The matching figures for `CCCCCCCC(=O)N[C@@H](CCC(=O)NCCOCCOCC(=O)NCCOCCOCC(=O)NCCCC[C@H](NC(=O)[C@@H]1CCCN1C(=O)[C@@H](NC(=O)[C@H](Cc1c[nH]cn1)NC(=O)[C@@H](NC(=O)[C@H](CCC(=O)O)NC(=O)CC(C)C)[C@@H](C)O)C(c1ccccc1)c1ccccc1)C(=O)NCCCCCc1ccccc1)C(=O)O` [compound 90]: 1 to 30 nM and 10 to 100 nM.
Consider `COC(=O)CCC(CCCC(C)C)C(=O)N[C@H]1CSSC[C@@H](C(=O)N[C@@H](CCCC[N+](C)(C)C)C(=O)NCCCCc2ccccc2)NC(=O)[C@H](C(c2ccccc2)c2ccccc2)NC(=O)[C@H](Cc2c[nH]cn2)NC1=O` (stereo partly drawn) [compound 177], for which the concentration for half-maximal inhibition (IC50) at ferroportin [1] (Table 1D) and on ferroportin [2] (Table 1D) was over 500 nM throughout.
With `CC(C)CC(=O)N[C@@H](CCC(=O)O)C(=O)N[C@H]1CSSC[C@@H](C(=O)N[C@@H](CCCC[N+](C)(C)C)C(=O)NCCCCc2ccccc2)NC(=O)[C@H](C(c2ccccc2)c2ccccc2)NC(=O)[C@H](Cc2c[nH]cn2)NC1=O` [compound 193], the IC50 on ferroportin [1] (Table 1D) and on ferroportin [2] (Table 1D) was 100 to 500 nM throughout.
As for `CCCCCCCCCCCCCCCC(=O)NCC[N+](C)(C)CC(=O)NCCCCCC(=O)NCCCC[C@H](NC(=O)[C@@H]1C[C@H]2CN1C(=O)[C@H](C(c1ccccc1)c1ccccc1)NC(=O)[C@H](Cc1c[nH]cn1)NC(=O)[C@@H](NC(=O)[C@H](CCC(=O)O)NC(=O)CC(C)C)CSS2)C(=O)NCCCCc1ccccc1` [compound 21], the IC50 on ferroportin [1] (Table 1C) was 30 to 100 nM; at ferroportin [2] (Table 1C), over 500 nM.
As for `CCCCCCCCCCCCCCCC(=O)N[C@@H](CN)C(=O)NCCCC[C@H](NC(=O)[C@@H]1CCCN1C(=O)[C@@H](NC(=O)[C@H](Cc1c[nH]cn1)NC(=O)[C@@H](NC(=O)[C@H](CCC(=O)O)NC(=O)CC(C)C)[C@@H](C)O)C(c1ccccc1)c1ccccc1)C(=O)NCCCCc1ccccc1` [compound 202], the IC50 at ferroportin [1] (Table 1D) was in the range of 1 to 30 nM; at ferroportin [2] (Table 1D), 10 to 100 nM.
In the case of `CCCCCCCCCCCCCCCC(=O)NCC[N+](C)(C)CC(=O)NCCOCCOCC(=O)NCCOCCOCC(=O)NCCCC[C@H](NC(=O)[C@@H]1CCCN1C(=O)[C@@H](NC(=O)[C@H](Cc1c[nH]cn1)NC(=O)[C@@H](NC(=O)[C@H](CCC(=O)O)NC(=O)CC(C)C)[C@@H](C)O)C(c1ccccc1)c1ccccc1)C(=O)NCCCN1CCOCC1` [compound 106], the values for the 50% inhibitory concentration (IC50) at ferroportin [1] (Table 1D) and on ferroportin [2] (Table 1D) were over 500 nM and 0.1 to 10 nM, respectively.
`CC(C)CC(=O)N1C[C@@H]2C[C@H]1C(=O)N[C@@H]([C@@H](C)O)C(=O)N[C@@H](Cc1c[nH]cn1)C(=O)N[C@@H](C(c1ccccc1)c1ccccc1)C(=O)N1C[C@@H](C[C@H]1C(=O)N[C@@H](CCCCNC(=O)CCOCCOCC[N+](C)(C)C)C(=O)NCCCCc1ccccc1)SS2` [compound 159]: the IC50 at ferroportin [1] (Table 1D) and at ferroportin [2] (Table 1D) was over 500 nM throughout.
Take `CCCCCCCCCCCCCCCC(=O)NCC[N+](C)(C)CC(=O)NCC[N+](C)(C)CC(=O)NCCCC[C@H](NC(=O)[C@@H]1CCCN1C(=O)[C@@H](NC(=O)[C@H](Cc1c[nH]cn1)NC(=O)[C@@H](NC(=O)[C@H](CCC(=O)O)NC(=O)CC(C)C)[C@@H](C)O)C(c1ccccc1)c1ccccc1)C(=O)NCCCCCc1ccccc1` [compound 71]: the IC50 lay in the range of 1 to 30 nM on ferroportin [1] (Table 1D) and 10 to 100 nM on ferroportin [2] (Table 1D).
As to `CC(C)CC(=O)N[C@H]1CSSC[C@@H](C(=O)N[C@@H](CCCCNC(=O)CCOCCOCC[N+](C)(C)C)C(=O)NCCCCc2ccccc2)NC(=O)[C@H](C(c2ccccc2)c2ccccc2)NC(=O)[C@H](Cc2c[nH]cn2)NC(=O)[C@H]([C@@H](C)O)NC1=O` [compound 160], the IC50 was 100 to 500 nM at ferroportin [1] (Table 1D) and over 500 nM at ferroportin [2] (Table 1D).
On to `CCCCCCCCCCCCCCCC(=O)NCCCCCC(=O)NCCCC[C@@H]1NC(=O)[C@@H]2CCCN2C(=O)[C@H](C(c2ccccc2)c2ccccc2)NC(=O)[C@H](Cc2c[nH]cn2)NC(=O)[C@H]([C@@H](C)O)NC(=O)[C@@H](NC(=O)CC(C)C)CCC(=O)NCCOc2ccc(cc2)C[C@@H](C(N)=O)NC1=O` [compound 30], for which the half-maximal inhibitory concentration (IC50) at ferroportin [1] (Table 1C) is 30 to 100 nM; on ferroportin [2] (Table 1C) it was 10 to 100 nM.
In the case of `CCCCCCCCCCCCCCCC(=O)NCC[N+](C)(C)CC(=O)NCCOCCOCC(=O)NCCOCCOCC(=O)NCCCC[C@H](NC(=O)[C@@H]1C[C@@H]2CN1C(=O)[C@H](C(c1ccccc1)c1ccccc1)NC(=O)[C@H](Cc1c[nH]cn1)NC(=O)[C@@H]1C[C@@H](CN1C(=O)[C@H](CCC(=O)O)NC(=O)CC(C)C)SS2)C(=O)NCCCCc1ccccc1` [compound 169], the IC50 lay in the range of 1 to 30 nM at ferroportin [1] (Table 1D) and 0.1 to 10 nM on ferroportin [2] (Table 1D).
In the same order, the values of `COC(=O)CCC(CCCC(C)C)C(=O)N[C@H](C(=O)N[C@@H](Cc1c[nH]cn1)C(=O)N[C@H](C(=O)N1CCC[C@H]1C(=O)N(C)[C@@H](CCCC[N+](C)(C)C)C(=O)NCCCCc1ccccc1)C(c1ccccc1)c1ccccc1)[C@@H](C)O` (single isomer, unassigned) [compound 165] are over 500 nM and over 500 nM.
For the molecule `CC(C)CC(=O)N[C@@H](CCC(=O)O)C(=O)N[C@H](C(=O)N[C@@H](Cc1c[nH]cn1)C(=O)N[C@H](C(=O)N1CCC[C@H]1C(=O)N[C@@H](CCCCNC(=O)CCOCCOCCOCCOCCNC(=O)[C@H](CN)NC(=O)CCCc1ccc(I)cc1)C(=O)NCCCCCc1ccccc1)C(c1ccccc1)c1ccccc1)[C@@H](C)O` [compound 83], the figures for the IC50 at ferroportin [1] (Table 1D) and on ferroportin [2] (Table 1D) were 1 to 30 nM and 0.1 to 10 nM, respectively.
For the molecule `CCCCCCCCCCCCCCCC(=O)NCC[N+](C)(C)CC(=O)NCCCCCC(=O)NCCCC[C@H](NC(=O)[C@@H]1CCCN1C(=O)[C@@H](NC(=O)[C@H](Cc1c[nH]cn1)NC(=O)[C@@H](NC(=O)[C@H](CCC(=O)O)NC(=O)CC(C)C)[C@@H](C)O)C(c1ccccc1)c1ccccc1)C(=O)NCC(c1ccccc1)c1ccccc1` [compound 25], the concentration for half-maximal inhibition (IC50) at ferroportin [1] (Table 1C) fell in the range of 1 to 30 nM; on ferroportin [2] (Table 1C), 10 to 100 nM.
On to `CC(C)CC(=O)N[C@@H](CCC(=O)O)C(=O)N[C@H](C(=O)N[C@@H](Cc1c[nH]cn1)C(=O)N[C@H](C(=O)N1CCC[C@H]1C(=O)N[C@H](CCCCN)C(=O)N(CC1CC1)C(CC(C)C)C(N)=O)C(c1ccccc1)c1ccccc1)[C@@H](C)O` (stereo partly drawn) [compound 151], for which the results for the IC50 on ferroportin [1] (Table 1D) and at ferroportin [2] (Table 1D) were 1 to 30 nM and 100 to 500 nM, respectively.
In the same order, the values of `CCCCCCCC/C=C\CCCCCCCC(=O)N[C@@H](CCC(=O)NCCOCCOCC(=O)NCCOCCOCC(=O)NCCCC[C@H](NC(=O)[C@@H]1CSSC[C@H](NC(=O)[C@H](CCC(=O)O)NC(=O)CC(C)C)C(=O)N[C@@H](Cc2c[nH]cn2)C(=O)N[C@@H](C(c2ccccc2)c2ccccc2)C(=O)N1)C(=O)NCCCCc1ccccc1)C(=O)O` [compound 127] are 30 to 100 nM and 10 to 100 nM.
`CCCCCCCCCCCCCCCC(=O)N[C@@H](CN)C(=O)NCCOCCOCC(=O)NCCOCCOCC(=O)NCCCC[C@H](NC(=O)[C@@H]1CCSSCC[C@H](NC(=O)[C@H](CCC(=O)O)NC(=O)CC(C)C)C(=O)N[C@@H](Cc2c[nH]cn2)C(=O)N[C@@H](C(c2ccccc2)c2ccccc2)C(=O)N1)C(=O)NCCCCc1ccccc1` [compound 166]: the IC50 at ferroportin [1] (Table 1D) lay within 100 to 500 nM; on ferroportin [2] (Table 1D) it was 10 to 100 nM.
